Data as given in ChEMBL document CHEMBL1144315, “Three-dimensional quantitative structure (3-D QSAR) activity relationship studies on imidazolyl and N-pyrrolyl heptenoates as 3-hydroxy-3-methylglutaryl-CoA reductase (HMGR) inhibitors by comparative molecular similarity indices analysis (CoMSIA)” (Bioorg Med Chem Lett, 2005).

Biological target: T1, 3-hydroxy-3-methylglutaryl-coenzyme A reductase (Homo sapiens, UniProt P04035)
T1 sequence (P04035 whole entry): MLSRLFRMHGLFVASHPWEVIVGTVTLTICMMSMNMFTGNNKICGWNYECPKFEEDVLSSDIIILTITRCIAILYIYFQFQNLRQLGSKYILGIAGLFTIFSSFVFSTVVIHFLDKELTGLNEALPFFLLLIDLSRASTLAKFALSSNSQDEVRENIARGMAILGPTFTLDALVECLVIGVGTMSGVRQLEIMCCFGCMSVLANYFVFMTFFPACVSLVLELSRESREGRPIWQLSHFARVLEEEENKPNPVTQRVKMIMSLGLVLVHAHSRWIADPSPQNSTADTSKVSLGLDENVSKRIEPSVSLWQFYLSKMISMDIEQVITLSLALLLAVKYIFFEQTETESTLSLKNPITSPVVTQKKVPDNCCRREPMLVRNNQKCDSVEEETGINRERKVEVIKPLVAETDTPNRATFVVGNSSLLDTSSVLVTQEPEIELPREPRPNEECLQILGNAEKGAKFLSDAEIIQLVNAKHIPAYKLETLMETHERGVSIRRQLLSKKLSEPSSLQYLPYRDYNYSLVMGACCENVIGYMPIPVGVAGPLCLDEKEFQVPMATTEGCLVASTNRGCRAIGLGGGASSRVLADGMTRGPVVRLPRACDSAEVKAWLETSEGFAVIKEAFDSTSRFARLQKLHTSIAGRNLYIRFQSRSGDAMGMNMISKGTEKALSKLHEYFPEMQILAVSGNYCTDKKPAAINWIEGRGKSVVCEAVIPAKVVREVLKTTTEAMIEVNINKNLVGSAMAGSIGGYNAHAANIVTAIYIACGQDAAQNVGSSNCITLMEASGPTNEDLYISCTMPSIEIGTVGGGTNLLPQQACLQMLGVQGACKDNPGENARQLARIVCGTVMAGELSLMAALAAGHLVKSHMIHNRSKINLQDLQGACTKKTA
Test: Inhibitory concentration against 3-hydroxy-3-methylglutaryl-CoA reductase

`CC(C)c1c(C(=O)Nc2ccccc2)c(-c2ccccc2)c(-c2ccc(F)cc2)n1CC[C@@H](O)C[C@@H](O)CC(=O)O` [ATORVASTATIN] was tested. Which IC50 did it give?
The IC50 was 6 nM.
